# Data reported in paper PMC10803289, “Transport and inhibition mechanism of the human SGLT2–MAP17 glucose transporter” (Nature Structural & Molecular Biology, 2023).
# Target: T1, hSGLT2 D201A (Homo sapiens, UniProt P31639, D201A)
# T1 sequence (P31639 1-672 D201A): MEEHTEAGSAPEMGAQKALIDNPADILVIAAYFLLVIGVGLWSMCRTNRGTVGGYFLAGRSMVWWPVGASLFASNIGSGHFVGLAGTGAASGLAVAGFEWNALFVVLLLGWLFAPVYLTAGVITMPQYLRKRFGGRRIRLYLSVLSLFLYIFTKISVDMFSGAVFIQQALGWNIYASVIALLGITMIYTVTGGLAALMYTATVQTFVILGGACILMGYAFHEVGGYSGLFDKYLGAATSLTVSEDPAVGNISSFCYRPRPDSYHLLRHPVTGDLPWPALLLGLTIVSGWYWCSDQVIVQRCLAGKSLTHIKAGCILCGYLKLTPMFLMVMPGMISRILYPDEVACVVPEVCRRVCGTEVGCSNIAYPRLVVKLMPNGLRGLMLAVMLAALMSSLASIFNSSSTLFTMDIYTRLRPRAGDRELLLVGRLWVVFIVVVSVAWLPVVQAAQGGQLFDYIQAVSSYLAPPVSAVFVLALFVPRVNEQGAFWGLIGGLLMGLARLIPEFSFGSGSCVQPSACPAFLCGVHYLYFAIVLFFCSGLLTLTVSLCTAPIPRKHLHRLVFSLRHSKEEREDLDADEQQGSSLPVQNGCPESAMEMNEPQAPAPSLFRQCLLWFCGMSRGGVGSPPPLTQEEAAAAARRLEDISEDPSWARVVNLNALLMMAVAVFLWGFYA
# T1 sequence (Q13113 1-114 partner): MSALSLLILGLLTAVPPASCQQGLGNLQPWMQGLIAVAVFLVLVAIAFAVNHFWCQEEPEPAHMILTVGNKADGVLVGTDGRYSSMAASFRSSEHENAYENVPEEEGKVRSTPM
# Test: SGLT2 inhibitor-binding assay (AS-MS), crude membrane, D201A mutant
# Set-up: expressed in transfected cells; host or cells: Expi293 cells, crude membrane fraction
# Conditions: for Binding Mean: Eadie–Hofstee
# Source text: hSGLT2 complementary DNA and human MAP17 cDNA were synthesized and codon-optimized for expression in human cell lines. Both cDNAs were cloned into the pcDNA3.4 vector. The hSGLT2 sequence was fused with an N-terminal signal sequence from human trypsinogen 1, a His10 tag, and sfGFP, followed by a human rhinovirus 3C protease (HRV3C protease) recognition site. Point mutations were introduced into this construct using site-directed mutagenesis. These plasmids were utilized for all experimental procedures conducted in this study.
# To examine the inhibition of binding to the crude membrane, mammalian Expi293 cells were co-transfected with the hMAP17 and hSGLT2 plasmids, as described. The cells were collected and disrupted by sonication in a hypotonic buffer (50 mM HEPES–NaOH (pH 7.5), 10 mM KCl and protease inhibitor cocktail) or Na^+-free hypotonic buffer (50 mM Tris–HCl (pH 7.5), 10 mM KCl and protease inhibitor cocktail). The cell debris were removed by centrifugation (2,000g, 5 min, 4 °C). The membrane fraction was collected by ultracentrifugation (112,000g, 30 min, 4 °C) and stored at −80 °C before use. The crude membrane (250 μg per sample) was incubated with SGLT2 inhibitor in an assay buffer (100 mM NaCl and 10 mM HEPES/Tris, pH 7.4) or Na^+-free assay buffer (100 mM choline chloride and 10 mM HEPES/Tris, pH 7.4) at room temperature for 2 h. Reactions were terminated by filtration through a GF/C filter plate (Corning) presoaked in assay buffer containing 0.1% bovine serum albumin. The sample in the filter plate was washed three times with the assay buffer and eluted with acetonitrile: water (80:20, v/v). The extract solution from the filter plate was diluted with water containing candesartan as an internal standard, and the SGLT2 inhibitor concentration was quantified via LC–MS/MS.
# Nonspecific binding was measured using the crude membrane of nontransfected Expi293 cells. Specific binding was calculated by subtracting nonspecific binding from the binding of hSGLT2-expressing cells. Specific binding was normalized to hSGLT2 protein expression levels, measured via FSEC. The equilibrium dissociation constant (Kd) and maximum number of binding sites (Bmax) were calculated via nonlinear regression in GraphPad Prism 8.4.3. The specific binding of the hSGLT2 mutants was normalized to the Bmax of WT hSGLT2.
# The concentrations of the extract solution from the filter plate and of the cell lysate were quantified using a tandem mass spectrometry QTRAP6500 System (SCIEX) coupled with an ACQUITY UPLC system (Waters) using the internal standard method. Mobile phases A and B used 10 mM of ammonium bicarbonate and acetonitrile, respectively.
compound,measurement,setting,value
O=C(CCc1ccc(O)cc1)c1c(O)cc(O)cc1O[C@@H]1O[C@H](CO)[C@@H](O)[C@H](O)[C@H]1O [Phlorizin],low-affinity binding phase,D201A mutant,lost
same,Binding Mean,"D201A, phlorizin 25 nM (inferred)",0.7940
same,Binding Mean,"D201A, phlorizin 50 nM (inferred)",1.4992
same,Binding Mean,"D201A, phlorizin 100 nM (inferred)",1.6708
same,Binding Mean,"D201A, phlorizin 200 nM (inferred)",2.1498
same,Binding Mean,"D201A, phlorizin 300 nM (inferred)",2.5194
same,Binding Mean,"D201A, phlorizin 500 nM (inferred)",2.9852
same,Binding Mean,"D201A, phlorizin 1000 nM (inferred)",3.0310
same,Binding Mean,"D201A, phlorizin 3000 nM (inferred)",3.7555
same,Binding Mean,"D201A, phlorizin 5000 nM (inferred)",2.5874
same,Bmax1,"phlorizin, D201A, mean ± SEM n=3",0.550 ± 0.028 pmol/mg-protein
